According to patent US11214594B2, “Antimicrobial peptide having synergistic antibacterial effect with antibiotics on multidrug resistant bacteria, and use thereof” (priority 2016, dated 2022):
Values after ≈ are worked out from the molar mass of the structure shown.

How the values were obtained:
P. aeruginosa = type: cell-based, Pseudomonas aeruginosa; details: agent alone
Description: (§1) For the antibacterial activity, a minimal inhibitory concentration (MIC) of a peptide in which fungus bodies were not split in an MH medium with sufficient nutrients was measured.
(§2) Specifically, the strains described in the following [Table 2] were purchased and diluted with an MH medium such that the number of bacteria was 2×10^6 colony-forming units (CFUs), 100 μl of each of the diluted strains was aliquoted into a 96-well microtiter plate, and then 100 μl of a peptide solution diluted with the MH medium (solution diluted stepwise at 2: 1) was added to each well.

B. subtilis = type: cell-based, Bacillus subtilis; details: agent alone
Description: as §1, §2

E. coli = type: cell-based, Escherichia coli; details: agent alone, MH medium, 37° C., 16 hours
Description: as §1, §2

S. typhimurium = type: cell-based, Salmonella typhimurium; details: agent alone
Description: as §1, §2

S. aureus = type: cell-based, Staphylococcus aureus; details: agent alone
Description: as §1, §2

Compound: CC[C@H](C)[C@H](NC(=O)CN)C(=O)NCC(=O)N[C@@H](C)C(=O)N[C@H](C(=O)N[C@@H](CC(C)C)C(=O)N[C@@H](CCCCN)C(=O)N[C@H](C(=O)N[C@@H](CC(C)C)C(=O)N[C@H](C(=O)N[C@H](C(=O)NCC(=O)N[C@@H](CC(C)C)C(=O)N1CCC[C@H]1C(=O)N[C@@H](C)C(=O)N[C@@H](CC(C)C)C(=O)N[C@H](C(=O)N[C@@H](CO)C(=O)N[C@@H](Cc1c[nH]c2ccccc12)C(=O)N[C@H](C(=O)N[C@@H](CCCCN)C(=O)N[C@@H](CCCNC(=N)N)C(=O)N[C@@H](CCCCN)C(=O)N[C@@H](CCCNC(=N)N)C(=O)N[C@@H](CCC(N)=O)C(=O)N[C@@H](CCC(N)=O)C(N)=O)[C@@H](C)CC)[C@@H](C)CC)[C@@H](C)O)[C@@H](C)O)C(C)C)C(C)C [Melittin, reference compound]
- Minimal inhibitory concentration MIC (P. aeruginosa): 8 µg/mL (≈ 2.81 µM)
- Minimal inhibitory concentration MIC (B. subtilis): 32 µg/mL (≈ 11.2 µM)
- Minimal inhibitory concentration MIC (E. coli): 16 µg/mL (≈ 5.62 µM)
- Minimal inhibitory concentration MIC (S. typhimurium): 32 µg/mL (≈ 11.2 µM)
- Minimal inhibitory concentration MIC (S. aureus): 8 µg/mL (≈ 2.81 µM)
